Water solubility values, as collected for the OPERA models

From the experimental data distributed with OPERA 2.9.

Solubility in water is on a log10 molar scale (set defined at 25 °C). Cells with "–" have no entry in this list.

Listed for COc1cc2c3c(ccc4c5ccc6c7c(cc(OC)c(c1c34)c75)-c1ccccc1C6=O)C(=O)c1ccccc1-2 [C.I. Vat Green 1]: log S -5.599 (log10 mol/L).
Listed for CC(C)(C)C(=O)OCn1ncc2c(O)ncnc21 [ALLOPURINOL,1-[PIVALOYLOXYMETHYL]-]: log S -2.682 (log10 mol/L).
Listed for CCC1NC(=O)C(CC)NC1=O (centres undefined) [3,6-Diethylpiperazine-2,5-dione]: log S -1.712 (log10 mol/L).
Listed for CCN(CC)C(=O)Cn1cnc2c1c(=O)n(C)c(=O)n2C: log S -0.923 (log10 mol/L).
Listed for Nc1cccc2c(S(=O)(=O)O)cccc12 [1-Naphthalenesulfonic acid, 5-amino-]: log S -2.349 (log10 mol/L).
Listed for Nc1c(Oc2ccccc2)c(Oc2ccccc2)c(N)c2c1C(=O)c1ccccc1C2=O: log S -8.255 (log10 mol/L).
Listed for Cc1cc(O)n(CCC(=O)O)c(=O)c1C#N: log S -1.444 (log10 mol/L).
Listed for NS(=O)(=O)c1cc2c(s1)C(=O)CCS2 [7-Oxo-6,7-dihydro-5H-thieno[3,2-b]thiopyran-2-sulfonamide]: log S -3.494 (log10 mol/L).
Listed for CN(C)C(=O)Nc1cccc(F)c1 [Urea, 3-(m-fluorophenyl)-1,1-dimethyl-]: log S -1.699 (log10 mol/L).
Listed for C=C(Nc1ccc(OCC)cc1)Nc1ccc(OCC)cc1 [Phenacaine]: log S -1.128 (log10 mol/L).
Listed for NC(N)=NCCCCCC(=O)O [epsilon-Guanidinocaproate]: log S -2.387 (log10 mol/L).
Listed for O=c1[nH]c(=O)c2[nH]c(=O)c(=O)[nH]c2[nH]1 [Tetrahydroxypteridine]: log S -4.057 (log10 mol/L).
Listed for COC(=O)C1=C(C)NC(C)=C(C(=O)OCCN(C)Cc2ccccc2)C1c1cccc([N+](=O)[O-])c1 (centres undefined) [Nicardipine]: log S -5.288 (log10 mol/L).
Listed for O=[N+]([O-])c1ccc2c(c1CO)OCO2 [(5-Nitro-2H-1,3-benzodioxol-4-yl)methanol]: log S -3.064 (log10 mol/L).
Listed for CCOc1ccc(N2C(=O)CCC2=O)cc1 [1-(4-Ethoxyphenyl)-2,5-pyrrolidinedione]: log S -2.461 (log10 mol/L).
Listed for CN(C)c1nc(N(C)C)nc(N(C)O)n1: log S -2.37 (log10 mol/L).
Listed for CCCCCCC(CCCC)COC(=O)c1ccccc1O (centres undefined) [2-Butyloctyl 2-hydroxybenzoate]: log S -7.033 (log10 mol/L).
Listed for NC(N)=Nc1nc(CSCCC(N)=NS(N)(=O)=O)cs1 [Famotidine]: log S -2.57 (log10 mol/L).
Listed for CCCCC(O)CCCC [Nonan-5-ol]: log S -2.495 (log10 mol/L).
Listed for O=[N+]([O-])c1ccc([O-])c(/N=N/c2c([O-])ccc3ccccc23)c1.O=[N+]([O-])c1ccc([O-])c(/N=N/c2c([O-])ccc3ccccc23)c1.[Cr+3].[Na+]: log S -4.477 (log10 mol/L).
Listed for O=C(O)C(=O)Cc1ccccc1 [Phenylpyruvic acid]: log S -0.166 (log10 mol/L).
Listed for CCCCCCCC(O)C(O)C(=O)O (centres undefined) [2,3-Dihydroxydecanoic acid]: log S -2.356 (log10 mol/L).
Listed for CN1C(=O)CC(C)(c2ccccc2)C1=O (centres undefined) [Methsuximide]: log S -1.98 (log10 mol/L).
Listed for CC12CCC(C(=O)N(O)C1=O)C2(C)C (centres undefined): log S -0.278 (log10 mol/L).
Listed for Cc1ccc(-c2ncc(Cl)cc2-c2ccc(S(C)(=O)=O)cc2)cn1 [Etoricoxib]: log S -5.039 (log10 mol/L).
Listed for Clc1ccc(Oc2c(Cl)cc(Cl)cc2Cl)cc1: log S -6.83 (log10 mol/L).
Listed for O=C[C@H](O)[C@@H](O)[C@H](O[C@H]1O[C@H](CO)[C@@H](O)[C@H](O)[C@H]1O)[C@H](O)CO [Maltose]: log S 0.254 (log10 mol/L).
Listed for CNc1ccc(O)c2c1C(=O)c1c(O)ccc(NC)c1C2=O [C.I. Disperse Blue 26]: log S -7.17 (log10 mol/L).
Listed for N[C@@H](CSCCCCSC[C@H](N)C(=O)O)C(=O)O [S,S-BUTANEDIYLDI-L-CYSTEINE]: log S -3.627 (log10 mol/L).
Listed for OCC1N=C(O)C(CO)N=C1O (centres undefined) [3,6-Bis(hydroxymethyl)-3,6-dihydropyrazine-2,5-diol]: log S -1.709 (log10 mol/L).
Listed for CC(C)c1ccc(CCO)cc1 [4-Isopropylphenylethyl alcohol]: log S -2.261 (log10 mol/L).
Listed for Nc1ccc(S(=O)(=O)Nc2ccc(Cl)nn2)cc1 [Sulfachloropyridazine]: log S -1.611 (log10 mol/L).
Listed for NCCOP(=O)(O)O [2-Aminoethyl dihydrogen phosphate]: log S -0.292 (log10 mol/L).
Listed for CCC=CC=CC=O [2,4-Heptadienal]: log S -1.593 (log10 mol/L).
Listed for O=C(Cn1ccnc1[N+](=O)[O-])NCc1ccccc1 [Benznidazole]: log S -2.81 (log10 mol/L).
Listed for CC(Oc1c(Cl)cccc1Cl)C1=NCCN1 (centres undefined) [Lofexidine]: log S -3.246 (log10 mol/L).
Listed for Clc1ccc(Oc2c(Cl)c(Cl)cc(Cl)c2Cl)cc1Cl [2,3,3',4',5,6-Hexachlorodiphenylether]: log S -8.3 (log10 mol/L).
Listed for CN1CCN(c2cc3c(cc2F)c(=O)c(C(=O)O)cn3-c2ccc(F)cc2)CC1 [Difloxacin]: log S -2.48 (log10 mol/L).
Listed for O=c1oc(-c2ccccc2)nc2ccccc12 [2-Phenyl-3,1-benzoxazin-4-one]: log S -4.61 (log10 mol/L).
Listed for CC(CCC(C)C(N)=O)C(N)=O (centres undefined) [2,5-Dimethylhexanediamide]: log S 0.375 (log10 mol/L).
Listed for CCOC(=O)CNC(C)=CC(C)=O [N-(1-Methyl-3-oxo-1-butenyl)glycine ethyl ester]: log S -0.586 (log10 mol/L).
Listed for Nc1cc(C(=O)O)ccc1S(=O)(=O)O [3-Amino-4-sulfobenzoic acid]: log S -2.434 (log10 mol/L).
Listed for CCCCCCOC(=O)C(C)OC(=O)C(C)O (centres undefined) [1-(Hexyloxy)-1-oxopropan-2-yl 2-hydroxypropanoate]: log S -2.489 (log10 mol/L).
Listed for CCCCCC[C@@H](O)C/C=C\CCCCCCCC(=O)O [(9Z,12R)-12-Hydroxyoctadec-9-enoic acid]: log S -1.932 (log10 mol/L).
Listed for Clc1cc(Cl)c(Cl)c(Oc2ccccc2)c1Cl: log S -7.02 (log10 mol/L).
Listed for O=C1CCCCCNC(=O)CCCCCNC(=O)CCCCCNC(=O)CCCCCN1 [1,8,15,22-Tetraazacyclooctacosane-2,9,16,23-tetrone]: log S -2.811 (log10 mol/L).
Listed for Nc1ccc2cc(S(=O)(=O)[O-])cc(O)c2c1/N=N/c1ccccc1C(F)(F)F.[Na+] [Acid Red 337]: log S -2.069 (log10 mol/L).
Listed for Nc1ccc(N)c(S(=O)(=O)O)c1 [2,5-Diaminobenzenesulfonic acid]: log S -1.673 (log10 mol/L).
Listed for CCOC(=O)[C@H](CCc1ccccc1)N[C@@H](C)C(=O)N1CC2(C[C@H]1C(=O)O)SCCS2 [Spirapril]: log S -4.202 (log10 mol/L).
Listed for O=C(O)c1c(Br)cc(Br)cc1Br [2,4,6-Tribromobenzoic acid]: log S -2.011 (log10 mol/L).
Listed for CC(=O)Nc1cccc(F)c1 [N-(3-Fluorophenyl)acetamide]: log S -1.719 (log10 mol/L).
Listed for CN(CCO)S(=O)(=O)C(F)(F)C(F)(F)C(F)(F)C(F)(F)C(F)(F)C(F)(F)C(F)(F)C(F)(F)F [N-Methyl-N-(2-hydroxyethyl)perfluorooctanesulfonamide]: log S -5.834 (log10 mol/L).
Listed for O=[N+]([O-])c1ccc(/N=N/c2c([O-])ccc3ccccc23)c([O-])c1.O=[N+]([O-])c1ccc(/N=N/c2c([O-])ccc3ccccc23)c([O-])c1.[Cr+3].[Na+] [Disperse Grey SMP]: log S -4.477 (log10 mol/L).

Extract of 4 entries:

| SMILES | name | log S (log10 mol/L) |
|---|---|---|
| Nc1ccc(N)c(S(=O)(=O)O)c1 | 2,5-Diaminobenzenesulfonic acid | -1.673 |
| CN1C(=O)CC(C)(c2ccccc2)C1=O (centres undefined) | Methsuximide | -1.98 |
| O=c1oc(-c2ccccc2)nc2ccccc12 | 2-Phenyl-3,1-benzoxazin-4-one | -4.61 |
| CN(C)c1nc(N(C)C)nc(N(C)O)n1 | – | -2.37 |

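OPERA's authors assembled the values from existing databases and did not measure them anew. A listed value is a point estimate from one report or more. Method, purity and exact conditions of the single measurements are not given. A value may pool stereoisomers or salt forms, and the file does not say which form was measured. Some upstream entries may be estimates or bounds without being marked so.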